Data set [1] deals with human head and neck cancer cells SAS and human osteosarcoma cancer cells MG-63. Nature of the data set: In-vivo imaging (IVIS) of tumor accumulation in head and neck cancer- and osteosarcoma-bearing mice.
Data set [2] concerns PC3-PSMA-/ANXA1- and PC3-PSMA+/ANXA1+. Nature of the data set: In-vivo imaging (IVIS) of tumor accumulation of Val-Cit linked Cy7.5 peptides in prostate cancer-bearing nude mice. From the text:
Further, variation in accumulation depending on the tumor size was examined. […] Tumor accumulation was examined in the same manner as above (FIG. 22).

For data set [3], the system named is PC3-PSMA- and PC3-PSMA+, MBT2, or SAS. The following applies: 10 mg/kg intraperitoneal, tumor size 15 mm.
The subject of data set [4] is mouse bladder cancer cells MBT2.
The subject of data set [5] is PSMA-negative/ANXA1-negative human prostate cancer cells PC3 and PSMA-positive/ANXA1-positive PC3 cells. As to the kind of experiment: Anticancer treatment in back subcutaneous PC3 tumor model. The data set is classed as in vivo, nude mice. The following applies: post-treatment. The procedure: 1 × 10^6 PSMA-negative/ANXA1-negative human prostate cancer cells PC3 were inoculated into the left back of nude mice, and 1 × 10^6 PSMA-positive/ANXA1-positive PC3 cells were inoculated into the right back of the nude mice. […] As control, 0.919 mg/kg (22.975 ng vcMMAE/25 g mouse) of vcMMAE alone (molecular weight: 1316.6) was administered. The tumor size was monitored by measuring the average radiance (photon/sec/cm^2/sr) of the luciferase-expressing tumor after injection of luciferin (150 mg/mouse) using an IVIS system. After three courses of administration, the tumor size, body weight, pathological test, blood biochemical test, and blood cell count test values were evaluated (FIG. 41).

Setting [6] is: 10 mg/kg intraperitoneal, MBT2 tumor 5 mm.

As for “C(MI-Cy7.5)-vc-HPNEVRS [Cy7.5-vc-LHP7, reference compound]”, the “ex vivo accumulation in main organs” value is given as “did not exhibit tumor-specific accumulation” in data set [1] (96 hours after administration, head and neck cancer and osteosarcoma); “did not exhibit tumor-specific accumulation” in data set [2] (96 hours after administration, prostate cancer-bearing mice). Moreover, the “accumulation in the tumor” value in data set [1] (SAS and MG-63, tumor size 7 mm) is on record as “no Cy7.5-vc-LHP7 accumulated in the tumor”; in data set [2] (tumor size 7 mm, dose corresponding to Cy7.5 10 mg/kg, intraperitoneal), “no accumulation in the tumor”; in data set [2] (tumor size 15 mm, 28.7 mg/kg intraperitoneal), “no Cy7.5-vc-LHP7 accumulated in the tumor”.

As for “RRQRRAP(R7)-EMCS-Cy7.5 [L-R7 peptide-Cy7.5, reference compound]”, the tumor-specific accumulation result in data set [3] is given as “did not exhibit tumor-specific accumulation”.

With c(EMCS-Cy7.5)-hpnevrs [Cy7.5-dhp7], the “time of maximum tumor accumulation” value in data set [3] (each cancer-bearing nude mouse) amounted to 24 h. In data set [4] (setting [6]), the “start of increased fluorescence intensity in the tumor tissue area after administration” value turned out to be 30 min, the “strong tumor-specific accumulation maintained until” value is 96 h and the “time at which tumor accumulation reached the plateau” value turned out to be 24 h. For the same substance, in data set [4] (48 and 96 hours after administration), the “ex vivo accumulation in main organs” value is “strongly accumulated in the tumor tissue and the kidney, also accumulated in the intestine, but did not accumulate in other organs”.

Regarding c(vcMMAE)-hpnevrs [vcMMAE-dhp7], the “blood biochemical values compared with vcMMAE alone administration group” value in data set [5] was “did not significantly differ”.

These data come from patent EP4772523A1, “D-PEPTIDE AND USE THEREOF” (HIROSAKI UNIVERSITY, priority 2023, dated 2025).
